## Apparent affinities of Ab-14 variants for a coronavirus HR2 peptide

Reference: Li et al. 2023, doi:10.1038/s41467-023-39022-2. File: FLAb, binding data.

The target is the same throughout: PDVDLGDISGINAS, from the HR2 region of SARS-CoV-2 spike.

Parent: Ab-14, a human scFv built as VH, a (GGGGS)3 linker, VL. Only the CDRs of the heavy chain vary.
VH: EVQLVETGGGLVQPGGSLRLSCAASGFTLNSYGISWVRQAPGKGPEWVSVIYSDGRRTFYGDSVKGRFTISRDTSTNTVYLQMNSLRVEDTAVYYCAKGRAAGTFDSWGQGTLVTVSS
VL: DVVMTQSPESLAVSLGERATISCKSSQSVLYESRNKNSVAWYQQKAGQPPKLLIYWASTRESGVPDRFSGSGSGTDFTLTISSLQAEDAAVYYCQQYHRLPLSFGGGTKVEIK

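The starting antibody came from a phage panning campaign against this peptide. Designed CDR sequences, proposed from the first random library and measured here. Their group label is 14H_GPLM_HC (GPLM: also part of the Gaussian process libraries; HC: hill climbing; a sequence that several methods proposed may carry one label only). AlphaSeq pools MATa yeast showing the antibodies with MATalpha yeast showing the peptide. After mating in shaken culture at 30 °C for 16 h, diploids were selected and their barcode pairs sequenced. The ratio of observed to expected reads was calibrated, replicate by replicate, on BCL2-family standards whose Kd was known from biolayer interferometry. Each pool was mated in six replicate cultures.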

Variants are written as CDR1, CDR2 and CDR3 of the heavy chain (limits as in the source). Parent: GFTLNSYGIS, VIYSDGRRTFYGDSVK, GRAAGTFDS. The read-out is the apparent dissociation constant on a log10 scale (nM): the lower, the stronger. Averages over replicates are reported, and they cover detected replicates only. Where no diploid with the target was found in that replicate, the entry reads "nd": below detection, most likely a poor binder, though not proof of it. Background: pairings of all heavy chain designs with three empty control strains gave a value in 1% of cases (median 2.08, 5th percentile 0.84). Values in that range, when seen in few replicates, are hard to tell from nonspecific mating. Also given: how often the same scFv was detected with the empty control strains. Values of this round are not directly comparable with the first-round values of the same sequences. The authors averaged sequences with at least three values out of six and counted those with two or fewer as poor binders. The parent sequence was in this pool as ten entries: three were never detected, three once, and four in most replicates, with averages from 0.34 to 2.37.

With GFTLNEYGIS, VIYSDGRRTFYGDSVK, GRAALTFDG the result was nd, nd, nd, nd, nd, nd (controls 0 of 18).
With GFQLNQYGIS, VIYSDGRRTFYSDSVK, GRAAGTFDS the result was 0.18, 0.15, 0.11, 0.13, 0.10, 0.20 (mean 0.14; controls 0 of 18).
With GFTLNEYGIS, VIYSDGRRTSYSDSVK, GRAAGTFDS the result was 0.00, 0.05, 0.16, 0.06, 0.27, -0.28 (mean 0.04; controls 0 of 18).
With GFTLNEYGIS, VIYSDGRRTFYGDSVK, GRAAGTFIL the result was nd, nd, nd, nd, nd, nd (controls 0 of 18).
With GFTLNEYGIS, VIYSDGRRTFYYDSVK, GRYAGTFDS the result was nd, nd, nd, nd, nd, 3.92 (controls 1 of 18).
With GFDLNSYGIS, VIYSDGHRTFYGDSVK, GREAGTFDS the result was nd, 0.79, -0.43, 0.27, -0.03, 0.46 (mean 0.21; controls 0 of 18).
With GFTLNEYGIS, VIYSDGRRTWYTDSVK, GRAAGTFDS the result was nd, nd, nd, 0.95, nd, 2.34 (mean 1.64; controls 0 of 18).
With GFTLDQYGIS, VIYSDGRRTFYIDSVK, GRAAGTFDS the result was 1.36, nd, 0.74, nd, nd, nd (mean 1.05; controls 0 of 18).
With GFTLNEYGIS, VIYSDGRRTFYSDSVK, GRQAGTFDS the result was -0.01, 0.06, 0.11, -0.02, -0.16, 0.06 (mean 0.01; controls 0 of 18).
With GFTLNEYGIS, VIYSDGIRTFYGDSVK, GRLAGTFDS the result was 0.50, 0.44, 0.33, 0.29, 0.42, 0.26 (mean 0.37; controls 2 of 18).
With GFTLNSYGIS, VIYADGRRTFYGDSVK, GRAAGTNDL the result was nd, nd, nd, nd, 1.30, nd (controls 0 of 18).
With GFDLNSYGIS, VIYSDGRRTYYGDSVK, GRAAGTFDS the result was 0.69, 0.49, 0.39, -0.06, 1.31, 0.90 (mean 0.62; controls 0 of 18).
With GFTLNMYGIS, VIYSDGMRTFYSDSVK, GRAAGTFDS the result was 1.02, 0.51, 1.31, 0.87, 0.47, 0.96 (mean 0.86; controls 0 of 18).
With GFTLNEYGIS, VIYSDGRRYFYTDSVK, GRFAGTFDS the result was 1.77, 0.68, 1.26, 1.46, 0.59, 0.74 (mean 1.08; controls 0 of 18).
With GFTLNEYGIS, VIYSDGRRTFYQDSVK, GRAAGTFDS the result was 0.46, 0.49, 0.16, 1.40, 0.33, 0.45 (mean 0.55; controls 0 of 18).
With GFDLNSYGIS, VIYSDGRRTFYGDSVK, GRAAGCFNS the result was -0.41, 0.05, -0.65, 0.19, -0.79, 0.65 (mean -0.16; controls 0 of 18).
With GFDLNSYGIS, VIYSDGRRTFYSDSVK, GRAGGTFDS the result was 1.24, 1.05, 1.17, 0.54, 1.20, 0.64 (mean 0.97; controls 0 of 18).
With KFTLNSYGIS, VIYSDGRRTFYDDSVK, GRLAGTFDS the result was nd, nd, 1.47, nd, nd, nd (controls 0 of 18).
With GFVLNDYGIS, VIYSDGRRTFYIDSVK, GRAAGTFDS the result was 0.97, nd, 1.35, nd, nd, nd (mean 1.16; controls 0 of 18).
With GFTLMSYGIS, VIYSDGRRTFYADSVK, GQLAGTFDS the result was 1.18, 0.84, 0.44, 0.21, 0.73, 0.52 (mean 0.65; controls 0 of 18).
With GFTLNQYGIS, VIYSDGTRTFYSDSVK, GRQAGTFDS the result was 0.07, -0.13, -0.01, -0.12, 0.30, 0.30 (mean 0.07; controls 1 of 18).
With GFTLNDYGIS, VIYSDGMRTQYIDSVK, GRAAGTFDS the result was 0.29, 1.14, -0.08, 1.13, 1.83, 1.02 (mean 0.89; controls 0 of 18).
With GFTLNDYGIS, VIYADGRRTFYGDSVK, GQAAGTFIS the result was 1.82, 1.52, 0.31, 1.13, nd, 1.36 (mean 1.23; controls 0 of 18).
With GFTLNSYGIS, VIYSDGRRTFYDDHVK, GQLAGTFDS the result was nd, nd, 2.20, nd, 1.95, nd (mean 2.08; controls 1 of 18).
With GFDLNSYGIS, VIYSDGRRTFYGDSVK, GRAADIFDS the result was nd, nd, nd, nd, nd, nd (controls 2 of 18).
With GFTLNEYGIS, VIYSDGRRTFYGDSVK, GRFAGTFDL the result was 1.08, 1.19, 1.42, 1.19, 1.17, 0.70 (mean 1.12; controls 0 of 18).
With GFSLNSYGIS, VIYSDGRRTFYGDSVK, GKAAGTFDA the result was 1.32, 0.87, 1.29, 1.08, 1.32, 0.72 (mean 1.10; controls 0 of 18).
With GFTLEQYGIS, VIYSDGRRTFYADSVK, GRAAGTFDS the result was nd, 1.07, 1.08, 0.77, 0.72, 1.09 (mean 0.95; controls 0 of 18).
With GFDLNSYGIS, VIYSDGRRTFYGDSVK, GRAAGHFES the result was nd, nd, nd, nd, nd, nd (controls 0 of 18).
With GFTLNSYGIS, VIYSDGHRTFYDDSVK, GQTAGTFDS the result was 1.22, 0.04, 0.34, 1.16, 0.19, 0.31 (mean 0.54; controls 1 of 18).
With GFTLNQYGIS, VIYSDGQRTFYSDSVK, GRQAGTFDS the result was 0.66, -0.12, 0.49, 0.68, 0.01, -0.02 (mean 0.29; controls 0 of 18).
With GFTLNDYGIS, VIYSDGRRTAYMDSVK, GRAAGTFDS the result was nd, nd, nd, nd, nd, nd (controls 1 of 18).
With GFTLNEYGIS, VIYSDGRRTFYGDSVK, GRAAVTFDE the result was nd, nd, nd, nd, nd, nd (controls 0 of 18).
With GFSLNEYGIS, VIYSDGRRTFYYDSVK, GRFAGTFDS the result was nd, nd, nd, nd, nd, nd (controls 0 of 18).
With GFTLNEYGIS, VIYSDGRRTQYIDSVK, GRAAGTFDS the result was 0.31, 0.85, 0.50, nd, 0.75, 0.88 (mean 0.66; controls 0 of 18).
With GFTLNEYGIS, VIYSDGRRTFYDDSVK, GQLAGTFDS the result was 0.31, 0.14, -0.07, 0.02, -0.04, -0.02 (mean 0.06; controls 1 of 18).
With GFTLNDYGIS, VIYSDGRRTFYGDSVK, GKEAGTFIS the result was nd, nd, nd, nd, nd, nd (controls 0 of 18).
With GFTLNSYGIS, VIYSDGRRTFYSDSVK, GSAAGTFDA the result was 0.76, 0.81, 0.31, 0.46, 0.87, 0.70 (mean 0.65; controls 0 of 18).
With GFTLNNYGIS, VIYSDGRRTQYSDSVK, GRAAGTFDS the result was 2.21, 2.12, nd, nd, nd, 1.53 (mean 1.95; controls 0 of 18).
With GFTLNDYGIS, VIYSDGRRTFYGDSVK, GRAAGTFIT the result was nd, nd, nd, nd, nd, nd (controls 0 of 18).
With GFTLNDYGIS, VIYSDGRRTFYGDSVK, GKAAGTFDL the result was 0.08, -0.01, -0.10, 0.70, -0.21, -0.08 (mean 0.06; controls 0 of 18).
With GFSLNQYGIS, VIYSDGQRTFYSDSVK, GRAAGTFDS the result was nd, 1.39, nd, 1.21, nd, 1.80 (mean 1.47; controls 0 of 18).
With GFSLNEYGIS, VIYSDGRRTFYTDSVK, GQAAGTFDS the result was -0.24, -0.36, 0.02, -0.76, 0.05, 0.24 (mean -0.17; controls 0 of 18).
With GFDLNSYGIS, VIYSDGRRTFYSDSVK, GRAAGIFDS the result was 0.79, 1.50, 0.26, 0.47, 0.21, 0.28 (mean 0.58; controls 2 of 18).
With GFTLNEYGIS, VIYSDGRRTFYCDSVK, GRFAGTFDS the result was nd, 2.76, 2.06, 1.99, 1.84, 3.59 (mean 2.45; controls 0 of 18).
With GFTLNDYGIS, VIYSDGRRTFYGDSVK, GRAAGTFTK the result was nd, nd, nd, nd, nd, nd (controls 0 of 18).
With GFDLNTYGIS, VIYSDGRRTFYDDSVK, GQLAGTFDS the result was 0.18, -0.09, -0.19, -0.18, -0.11, -0.17 (mean -0.09; controls 1 of 18).
With GFQLNSYGIS, VIYSDGRRTFYHDSVK, GRAAGTFDS the result was nd, 1.24, 2.25, 1.57, 1.52, 1.83 (mean 1.68; controls 0 of 18).
With GFTLNEYGIS, VIYSDGRRTFYTDSVK, GREAGTFDS the result was 0.10, -0.09, 0.13, -0.03, -0.06, 0.15 (mean 0.03; controls 1 of 18).
With GFTLNEYGIS, VIYSDGRRTFYSDSVK, GRAAGFFSS the result was 0.64, 0.27, 1.80, 1.28, 0.63, 1.02 (mean 0.94; controls 1 of 18).
With GFWLNEYGIS, VIYSDGRRTFYTDSVK, GRFAGTFDS the result was 1.02, 1.28, 0.54, 0.67, 2.30, 1.17 (mean 1.16; controls 1 of 18).

Excerpt, the first 8 entries:

CDR-H1,CDR-H2,CDR-H3,"log10 Kd, replicates",mean log10 Kd (nM),control signals
GFTLNEYGIS,VIYSDGRRTFYGDSVK,GRAALTFDG,"nd, nd, nd, nd, nd, nd",nd,0 of 18
GFQLNQYGIS,VIYSDGRRTFYSDSVK,GRAAGTFDS,"0.18, 0.15, 0.11, 0.13, 0.10, 0.20",0.14,0 of 18
GFTLNEYGIS,VIYSDGRRTSYSDSVK,GRAAGTFDS,"0.00, 0.05, 0.16, 0.06, 0.27, -0.28",0.04,0 of 18
GFTLNEYGIS,VIYSDGRRTFYGDSVK,GRAAGTFIL,"nd, nd, nd, nd, nd, nd",nd,0 of 18
GFTLNEYGIS,VIYSDGRRTFYYDSVK,GRYAGTFDS,"nd, nd, nd, nd, nd, 3.92",3.92,1 of 18
GFDLNSYGIS,VIYSDGHRTFYGDSVK,GREAGTFDS,"nd, 0.79, -0.43, 0.27, -0.03, 0.46",0.21,0 of 18
GFTLNEYGIS,VIYSDGRRTWYTDSVK,GRAAGTFDS,"nd, nd, nd, 0.95, nd, 2.34",1.64,0 of 18
GFTLDQYGIS,VIYSDGRRTFYIDSVK,GRAAGTFDS,"1.36, nd, 0.74, nd, nd, nd",1.05,0 of 18